From ChEMBL document CHEMBL4732170, “Discovery of Small-Molecule Antagonists of the PWWP Domain of NSD2” (J Med Chem, 2021) come the findings set out here.

The target of this assay is T1, Histone-lysine N-methyltransferase NSD2 (Homo sapiens) (UniProt O96028).
T1 sequence (whole entry): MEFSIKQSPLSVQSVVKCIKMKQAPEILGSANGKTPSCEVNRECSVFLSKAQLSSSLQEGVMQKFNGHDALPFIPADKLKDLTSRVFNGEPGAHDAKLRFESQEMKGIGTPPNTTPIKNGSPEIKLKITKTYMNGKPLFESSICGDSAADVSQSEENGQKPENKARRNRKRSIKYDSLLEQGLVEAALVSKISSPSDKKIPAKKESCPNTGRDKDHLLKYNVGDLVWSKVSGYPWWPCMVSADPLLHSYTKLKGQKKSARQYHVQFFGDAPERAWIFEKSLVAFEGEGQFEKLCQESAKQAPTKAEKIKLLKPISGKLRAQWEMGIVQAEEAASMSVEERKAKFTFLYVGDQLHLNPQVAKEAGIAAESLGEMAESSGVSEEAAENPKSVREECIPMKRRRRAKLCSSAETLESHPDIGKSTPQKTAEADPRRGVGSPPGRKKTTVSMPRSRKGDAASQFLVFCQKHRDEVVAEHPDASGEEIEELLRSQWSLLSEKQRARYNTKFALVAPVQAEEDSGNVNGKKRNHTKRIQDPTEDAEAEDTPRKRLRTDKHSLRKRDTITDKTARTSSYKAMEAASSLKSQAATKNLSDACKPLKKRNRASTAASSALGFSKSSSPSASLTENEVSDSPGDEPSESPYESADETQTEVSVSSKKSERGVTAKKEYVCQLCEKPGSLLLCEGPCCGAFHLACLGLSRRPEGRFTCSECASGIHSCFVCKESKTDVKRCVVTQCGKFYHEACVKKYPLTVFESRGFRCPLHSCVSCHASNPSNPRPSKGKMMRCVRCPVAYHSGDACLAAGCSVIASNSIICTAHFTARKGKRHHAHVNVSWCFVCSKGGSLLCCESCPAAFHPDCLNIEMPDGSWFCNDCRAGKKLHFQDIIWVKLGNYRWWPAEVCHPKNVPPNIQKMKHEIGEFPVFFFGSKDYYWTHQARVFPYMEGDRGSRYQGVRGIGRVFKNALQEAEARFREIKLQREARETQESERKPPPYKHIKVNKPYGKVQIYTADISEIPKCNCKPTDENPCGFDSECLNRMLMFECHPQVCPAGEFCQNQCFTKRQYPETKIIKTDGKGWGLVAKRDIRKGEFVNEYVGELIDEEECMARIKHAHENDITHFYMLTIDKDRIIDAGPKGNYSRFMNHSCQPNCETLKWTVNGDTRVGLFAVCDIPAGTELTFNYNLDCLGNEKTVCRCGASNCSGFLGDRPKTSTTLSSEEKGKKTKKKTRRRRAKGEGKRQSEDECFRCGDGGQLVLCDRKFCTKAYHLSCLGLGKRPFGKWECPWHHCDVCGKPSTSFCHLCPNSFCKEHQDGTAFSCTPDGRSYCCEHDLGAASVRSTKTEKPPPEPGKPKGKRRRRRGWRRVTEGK
Put plainly: Binding affinity to NSD2 PWWP1 domain (unknown origin) assessed as change in aggregation temperature at 500 uM by heating at 25 to 85 degC by differential static light scattering method. The following applies: filed as antagonist.

Each structure is given as a SMILES string.

As for `N#Cc1ccc(C(=O)N2CCCC2c2ccc(Cl)cc2)cc1` (configuration not stated), the deltaT came out at 1.9 °C. In the case of `N#Cc1ccc(C(=O)N(Cc2ccc(F)cc2)C2CC2)cc1`, the deltaT is 5.7 °C.
